For this assay, the target named is T1, Crabp1 (cellular retinoic acid binding protein 1) (Mus musculus, UniProt P62965).
T1 construct: uniformly 15N-labeled His-tagged Crabp1 (pET-15b, N-terminal His6x-tag)
In words: […]-1H HSQC NMR of […]N-Crabp1 with […] atRA (slow exchange).

The chains behind the UniProt entries cited, without tags or fusion partners.
UniProt P62965, whole entry: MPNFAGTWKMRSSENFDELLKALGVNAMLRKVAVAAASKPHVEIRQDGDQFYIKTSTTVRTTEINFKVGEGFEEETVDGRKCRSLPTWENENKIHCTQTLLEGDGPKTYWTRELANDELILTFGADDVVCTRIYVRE

As usually defined, the Kd is the concentration at which binding is half-saturated. In turn, `CC1=C(/C=C/C(C)=C/C=C/C(C)=C/C(=O)O)C(C)(C)CCC1` [atRA, all-trans retinoic acid] yielded a Kd of under 1000 nM.

The record behind these values is paper PMC6662813, “A new regulatory mechanism for Raf kinase activation, retinoic acid-bound Crabp1” (Scientific Reports, 2019).
